Here are results for 1 substance from publication PMC9578707, “Identification of orphan ligand-receptor relationships using a cell-based CRISPRa enrichment screening platform” (eLife, 2022).

This assay concerns the target TAFA-5 (human) (UniProt Q7Z5A7). Description: SPR; Biacore T100; biotinylated ligand captured on a streptavidin (SA) Series S chip (~100-200 RU); non-biotinylated analyte in twofold dilutions in HBS-P+; 60 s injection at 30 ul/min, 240 s dissociation; regeneration 2 x 10 sec 2M MgCl2; KD from the fit at equilibrium (steady state). For orientation: Surface plasmon resonance follows binding to a sensor surface in real time, without labels.

Substance “RNF167-ECD (transmembrane PA-TM-RING E3 ligase RNF167, extracellular domain) (from UniProt Q9H6Y7 25-350) (domain or fragment)” had a Kd of 23.3 µM.

One may read the Kd as the equilibrium constant for the complex coming apart. Low readings indicate higher affinity, high ones lower affinity.
